Earlier results, collected in patent US20080031887A1, “Conjugates for inducing targeted immune responses and methods of making and using same” (priority 2006, published 2008).

Tested on: breast cancer
Details: breast cancer patients; cited from earlier work

## herceptin: anti-human-neu mAb
  tumor growth: delays tumor growth
